The target in assay [1] is T1, ^125 I-h CGRP binding site (CGRP receptor) in rat liver membranes (Rattus norvegicus, UniProt Q63118+Q9JJ74).
T1 construct: from tissue; host or cells: rat liver membranes
The experiment in a line: 125I-h CGRP binding to rat liver membranes (saturation and competition). The conditions noted are these: competition against ^125 I-h CGRP.

Sequences of proteins named here, by UniProt entry; tags and fusion partners are left off. Residues count along the entry.
UniProt Q63118, 24-464: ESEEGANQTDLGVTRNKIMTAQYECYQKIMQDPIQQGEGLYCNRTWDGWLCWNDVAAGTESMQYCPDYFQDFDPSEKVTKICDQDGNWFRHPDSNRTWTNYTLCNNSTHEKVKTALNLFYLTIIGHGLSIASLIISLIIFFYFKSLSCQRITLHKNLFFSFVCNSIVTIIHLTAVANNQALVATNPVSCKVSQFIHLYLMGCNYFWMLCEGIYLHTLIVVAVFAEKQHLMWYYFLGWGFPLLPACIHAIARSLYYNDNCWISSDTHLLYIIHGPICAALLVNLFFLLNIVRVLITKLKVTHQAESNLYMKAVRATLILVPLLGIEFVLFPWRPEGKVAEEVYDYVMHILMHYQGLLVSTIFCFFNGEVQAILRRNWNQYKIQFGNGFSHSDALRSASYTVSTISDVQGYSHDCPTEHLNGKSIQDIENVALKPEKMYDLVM
UniProt Q9JJ74, 27-148: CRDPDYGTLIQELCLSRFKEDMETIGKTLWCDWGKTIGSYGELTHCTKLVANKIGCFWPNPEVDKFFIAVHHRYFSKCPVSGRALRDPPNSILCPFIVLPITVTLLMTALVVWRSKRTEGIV

Assay [2] has as its target ^125 I-CGRP binding sites in membranes from rat cerebellum (Rattus norvegicus, UniProt Q63118+Q9JJ74).
Assay [3] has as its target ^125 I-h CGRP binding sites in nucleus accumbens and surrounding regions. The experiment in a line: Competition for 125I-h CGRP binding to nucleus accumbens area (basal forebrain) membranes. Details: species or system rat. Conditions: ^125 I-h CGRP tracer, r amylin 2 site fit.

With `CC(C)C[C@H](NC(=O)CNC(=O)[C@H](C)NC(=O)[C@H](CC(C)C)NC(=O)[C@H](CCCNC(=N)N)NC(=O)[C@H](Cc1c[nH]cn1)NC(=O)[C@@H](NC(=O)[C@@H](NC(=O)[C@@H]1CSSC[C@H](NC(=O)[C@H](C)N)C(=O)N[C@@H](CC(=O)O)C(=O)N[C@@H]([C@@H](C)O)C(=O)N[C@@H](C)C(=O)N[C@@H]([C@@H](C)O)C(=O)N1)C(C)C)[C@@H](C)O)C(=O)N[C@@H](CC(C)C)C(=O)N[C@@H](CO)C(=O)N[C@@H](CCCNC(=N)N)C(=O)N[C@@H](CO)C(=O)NCC(=O)NCC(=O)N[C@H](C(=O)N[C@H](C(=O)N[C@@H](CCCCN)C(=O)N[C@@H](CC(N)=O)C(=O)N[C@@H](CC(N)=O)C(=O)N[C@@H](Cc1ccccc1)C(=O)N[C@H](C(=O)N1CCC[C@H]1C(=O)N[C@H](C(=O)N[C@@H](CC(N)=O)C(=O)N[C@H](C(=O)NCC(=O)N[C@@H](CO)C(=O)N[C@@H](CCCCN)C(=O)N[C@@H](C)C(=O)N[C@@H](Cc1ccccc1)C(N)=O)C(C)C)[C@@H](C)O)C(C)C)C(C)C)C(C)C` [h CGRP, human α-CGRP], the “Hill Slope” value in assay [1] was -1.14; in assay [2], -1.21. The compound also gave a half-maximal inhibitory concentration (IC50) in assay [3] of 30 pM.

Source of the values: US5264372A (Amylin Pharmaceuticals, Inc., priority 1991, dated 1993).
